Laboratory results from ChEMBL document CHEMBL3112547, “Surface plasmon resonance using the catalytic domain of soluble guanylate cyclase allows the detection of enzyme activators” (Bioorg Med Chem Lett, 2014).

Protein sequences, listed by entry. Tags and fused reporters are not part of them. Lines headed by an entry give the natural chain unless they say otherwise; changes in a name come on top.
UniProt Q02153: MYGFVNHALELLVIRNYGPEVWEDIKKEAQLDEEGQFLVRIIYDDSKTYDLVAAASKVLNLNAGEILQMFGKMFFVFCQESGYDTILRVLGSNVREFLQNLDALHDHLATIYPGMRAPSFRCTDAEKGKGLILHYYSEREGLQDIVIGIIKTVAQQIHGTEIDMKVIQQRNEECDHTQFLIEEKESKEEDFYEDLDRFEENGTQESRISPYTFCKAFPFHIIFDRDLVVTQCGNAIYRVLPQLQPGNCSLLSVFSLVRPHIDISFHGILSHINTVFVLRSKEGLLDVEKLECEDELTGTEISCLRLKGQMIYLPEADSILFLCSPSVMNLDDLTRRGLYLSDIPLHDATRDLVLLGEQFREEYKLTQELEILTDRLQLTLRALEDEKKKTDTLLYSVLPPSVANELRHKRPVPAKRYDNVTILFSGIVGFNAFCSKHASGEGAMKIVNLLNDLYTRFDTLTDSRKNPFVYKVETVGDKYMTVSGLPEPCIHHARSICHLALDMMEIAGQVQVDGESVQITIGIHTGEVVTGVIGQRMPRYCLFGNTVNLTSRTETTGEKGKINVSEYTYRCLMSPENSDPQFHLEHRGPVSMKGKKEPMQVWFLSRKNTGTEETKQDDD
UniProt Q02108: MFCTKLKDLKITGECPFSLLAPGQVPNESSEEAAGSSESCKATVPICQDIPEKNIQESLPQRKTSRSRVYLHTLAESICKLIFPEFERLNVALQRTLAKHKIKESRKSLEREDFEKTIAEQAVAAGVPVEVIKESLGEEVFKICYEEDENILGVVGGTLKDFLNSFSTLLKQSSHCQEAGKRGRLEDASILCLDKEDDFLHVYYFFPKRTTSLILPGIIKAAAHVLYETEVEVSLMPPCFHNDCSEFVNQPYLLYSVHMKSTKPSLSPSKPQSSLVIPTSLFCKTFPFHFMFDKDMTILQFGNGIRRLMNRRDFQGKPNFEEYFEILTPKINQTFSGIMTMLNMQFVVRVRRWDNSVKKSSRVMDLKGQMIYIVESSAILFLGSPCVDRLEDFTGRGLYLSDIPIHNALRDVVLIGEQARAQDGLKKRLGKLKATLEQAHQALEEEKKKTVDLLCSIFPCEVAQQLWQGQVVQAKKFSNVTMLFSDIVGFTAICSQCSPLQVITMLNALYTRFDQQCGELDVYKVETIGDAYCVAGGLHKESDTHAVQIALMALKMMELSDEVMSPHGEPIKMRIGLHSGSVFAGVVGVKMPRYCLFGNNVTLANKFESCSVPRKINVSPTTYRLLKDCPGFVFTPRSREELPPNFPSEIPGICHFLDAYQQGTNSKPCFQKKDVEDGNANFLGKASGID

Columns and labels:
[1] = molecular target: T1, Soluble guanylate cyclase alpha1/beta1 complex (Homo sapiens) (UniProt Q02153+Q02108); assay: Binding affinity to sGC subunit alpha-1/beta-1 catalytic domain (unknown origin) at 100 uM after 30 seconds by SPR analysis; type: protein-complex assay
How it was run: (§1)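 Catalytic-domain α1β1 construct, buffer-exchanged to HEPES pH 7.5/300 mM NaCl/5% glycerol, amine-coupled (30 μg/mL, acetate pH 5.5, 1 mM ATP, 1 mM GTP, 3 mM MgCl2, 1 mM DTT). Compounds at 100 μM in DMSO-containing running buffer, 25 °C. Injection and dissociation 30 s each, triplicate. Responses double-referenced, DMSO-corrected, control subtracted; occupancy is the fraction of immobilised sites bound, assuming 1:1 stoichiometry.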

[2] = molecular target: T1, Soluble guanylate cyclase alpha1/beta1 complex (Homo sapiens); assay: Binding affinity to full-length human recombinant sGC subunit alpha-1/beta-1 at 100 uM after 30 seconds by SPR analysis; type: protein-complex assay
How it was run: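 Full-length enzyme amine-coupled to CM5 chip at 50 μg/mL in sodium acetate pH 4.5 with 1 mM DTT, 2 mM ATP, 3 mM MgCl2; reference cell blank-immobilised. Compounds at 100 μM in running buffer (10 mM HEPES pH 7.4, 150 mM NaCl, 3 mM EDTA, 0.05% P20, 1 mM DTT, 10 mM MgCl2, 5% DMSO), 25 °C. Injection and dissociation 30 s each, triplicate.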

[3] = molecular target: T1, Soluble guanylate cyclase alpha1/beta1 complex (Homo sapiens); assay: Binding affinity to sGC subunit alpha-1/beta-1 catalytic domain (unknown origin) assessed as occupancy relative to control; type: protein-complex assay; how it was run: as §1
[4] = molecular target: T1, Soluble guanylate cyclase alpha1/beta1 complex (Homo sapiens); assay: Activation of human recombinant sGC subunit alpha-1/beta-1 using GTP as substrate assessed as cGMP production measured per ng of protein at 100 uM treated prior to DEA/NO addition measured after 2 mins by radioimmunoassay in presence of Mg2+; type: protein-complex assay
[5] = molecular target: T1, Soluble guanylate cyclase alpha1/beta1 complex (Homo sapiens); conditions: 100 uM

- RU [1]: 7.1
- Activity [2]: Active
- Occ [3]: 85%
- Activity [4]: 22.7 pmol
- RU [5]: 18.4
SMILES: OCc1ccc(-c2nn(Cc3ccccc3)c3ccccc23)o1

Active and inactive are the calls of the source. No cut-off for these calls is given here.
